Data published in US20020025974A1, “BICYCLE THIOPHENES AND THIAZOLES” (priority 1998, published 2002).
Where two headings read alike, the source gives them in different places.

The chains behind the UniProt entries cited, without tags or fusion partners.
UniProt P22909, whole entry: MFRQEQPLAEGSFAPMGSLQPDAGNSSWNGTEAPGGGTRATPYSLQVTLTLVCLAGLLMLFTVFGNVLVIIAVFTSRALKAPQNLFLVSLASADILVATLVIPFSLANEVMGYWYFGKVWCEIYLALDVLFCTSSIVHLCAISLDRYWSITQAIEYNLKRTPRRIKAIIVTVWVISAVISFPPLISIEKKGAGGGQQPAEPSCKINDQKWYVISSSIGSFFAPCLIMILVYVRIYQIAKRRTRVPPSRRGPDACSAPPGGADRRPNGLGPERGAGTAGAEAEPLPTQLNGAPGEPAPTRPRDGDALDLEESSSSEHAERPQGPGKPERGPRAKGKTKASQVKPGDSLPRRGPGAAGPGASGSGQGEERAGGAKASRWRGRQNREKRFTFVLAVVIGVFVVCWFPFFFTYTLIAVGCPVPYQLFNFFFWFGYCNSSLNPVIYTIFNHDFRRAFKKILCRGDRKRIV

What was measured:
[1] = tested on: acetylcholine bromide-induced abdominal constriction; assay: Mouse Acetylcholine Bromide-Induced Abdominal Constriction Assay (MAIT); settings: po, acetylcholine bromide 5.5 mg/kg i.p. 30 minutes after drug, dose not given
Method: Mouse Acetylcholine Bromide-Induced Abdominal Constriction Assay (MAIT)
The mouse acetylcholine bromide-induced abdominal constriction assay, as described by Collier et al. in Brit. J. Pharmacol. Chem. Ther., 32: 295-310, 1968, with minor modifications was used to assess analgesic potency of the compounds herein. The test drugs or appropriate vehicle were administered orally (p.o.) and 30 minutes later the animal received an intraperitoneal (i.p.) injection of 5.5 mg/kg acetylcholine bromide (Matheson, Coleman and Bell, East Rutherford, N.J.). The mice were then placed in groups of three into glass bell jars and observed for a ten minute observation period for the occurrence of an abdominal constriction response (defined as a wave of constriction and elongation passing caudally along the abdominal wall, accompanied by a twisting of the trunk and followed by extension of the hind limbs). The percent inhibition of this response to a nociceptive stimulus (equated to % analgesia) was calculated as follows: The % Inhibition of response, i.e., % analgesia is equal to the difference between the number of control animals responding and the number of drug-treated animals responding times 100 divided by the number of control animals responding.
At least 15 animals were used for control and in each of the drug treated groups. At least three doses were used to determine each dose response curve and ED50 (that dose which would produce 50% analgesia). The ED50 values and their 95% fiducial limits were determined by a computer assisted probit analysis.

[2] = molecular target: Alpha-2D adrenergic receptor (Rattus norvegicus, UniProt P22909); assay: Alpha-2D adrenergic receptor binding assay (3H-para-aminoclonidine, rat cortex synaptic membranes)

Compound: c1ccc2sc(Cc3c[nH]cn3)nc2c1
- MAIT ([1]; tested form: fumarate (1.5 C4H4O4)): 7 po

Compound: CC(c1c[nH]cn1)c1cc2c(s1)CCCC2 (centres unmarked)
- Ki ([2]; read-out: α2D Ki, ligand 3H-para-aminoclonidine, 25° C. 20 min, tested form: fumarate (1:1)): 0.04 µM
- MAIT ([1]; tested form: fumarate (1:1)): 20 po

Compound: c1nc(Cc2cc3c(s2)CCCC3)c[nH]1
- Ki ([2]; read-out: α2D Ki, ligand 3H-para-aminoclonidine, 25° C. 20 min): 0.0037 µM
- MAIT [1]: 7 po
